# Legend:
# Chains of the proteins cited; added tags and fusions are not shown. Residues count along the entry.
# UniProt Q92793, 1085-1192 limits assumed: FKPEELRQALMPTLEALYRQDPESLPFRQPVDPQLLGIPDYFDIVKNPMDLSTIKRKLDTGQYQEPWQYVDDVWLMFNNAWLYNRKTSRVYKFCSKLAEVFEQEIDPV
# CBP BRD protein = CBP BRD protein (Homo sapiens, UniProt Q92793); assay: CBP inhibitory activity, TR-FRET assay of CBP bromodomain with Ac-H4 peptide; details: read-out: CBP BRD IC50, CBP BRD protein 7.5 nM, Ac-H4 peptide 85 nM, 2 hours at room temperature
# BRD4 (BD1) protein = BRD4 (BD1) protein (Homo sapiens, UniProt O60885); assay: BRD4 inhibitory activity, TR-FRET assay of BRD4 bromodomain with Ac-H4 peptide; details: read-out: BRD4 (BD1) IC50, BRD4 (BD1) protein 7.5 nM, Ac-H4 peptide 15 nM, 2 hours at room temperature
Structure (SMILES),IC50 (CBP BRD protein) [nM],IC50 (BRD4 (BD1) protein) [µM]
CNC(=O)c1ccc(-c2ccc3c(c2)nc(-c2cccc(-c4cnn(C)c4)c2C)n3-c2ccc3c(c2)n(C)c(=O)n3C)cc1F,500 to 5000,> 5
CCOC(=O)Cn1cc(-c2ccc3c(c2)nc(-c2cncn2C)n3-c2ccc3c(c2)n(C)c(=O)n3C)nn1,500 to 5000,> 5
Cn1cncc1-c1nc2cc(-c3cn(CCO)nn3)ccc2n1-c1ccc2c(c1)n(C)c(=O)n2C,500 to 5000,> 5
CNC(=O)c1ccc(-c2ccc3c(c2)nc(-c2cccc(C)c2C)n3-c2ccc3c(c2)n(C)c(=O)n3C)cc1F,< 500,> 5
CNC(=O)c1c(F)cc(-c2ccc3c(c2)nc(-c2cncn2C)n3-c2ccc3c(c2)n(C)c(=O)n3C)cc1F,500 to 5000,0.5 to 5
CNC(=O)c1ccc(-c2ccc3c(c2)nc(C(C)(C)C)n3-c2ccc3c(c2)n(C)c(=O)n3C)cc1F,< 500,> 5
CNC(=O)c1ccc(-c2ccc3c(c2)nc(-c2cncs2)n3-c2ccc3c(c2)n(C)c(=O)n3C)cc1F,500 to 5000,> 5
CNC(=O)c1ccc(-c2ccc3c(c2)nc(-c2cccc(OC)c2)n3-c2ccc3c(c2)n(C)c(=O)n3C)cc1F,500 to 5000,> 5
CNC(=O)c1ccc2c(c1)nc(-c1c[nH]c3cc(C)ccc13)n2-c1ccc2c(c1)n(C)c(=O)n2C,500 to 5000,> 5
CNC(=O)c1ccc(-c2ccc3c(c2)nc(-c2cccs2)n3-c2ccc3c(c2)n(C)c(=O)n3C)cc1F,> 5000,> 5
CNC(=O)c1ccc(-c2ccc3c(c2)nc(-c2ccccc2F)n3-c2ccc3c(c2)n(C)c(=O)n3C)cc1F,500 to 5000,> 5
CNC(=O)c1ccc(-c2ccc3c(c2)nc(-c2cnccc2N)n3-c2ccc3c(c2)n(C)c(=O)n3C)cc1F,500 to 5000,> 5
CNC(=O)c1ccc(-c2ccc3c(c2)nc(-c2cccc(Br)c2C)n3-c2ccc3c(c2)n(C)c(=O)n3C)cc1F,< 500,> 5
Cc1ccc2c(-c3nc4cc(C5=CCNCC5)ccc4n3-c3ccc4c(c3)n(C)c(=O)n4C)c[nH]c2c1,500 to 5000,> 5
CNC(=O)c1ccc(-c2ccc3c(c2)nc(-c2[nH]cnc2C)n3-c2ccc3c(c2)n(C)c(=O)n3C)cc1F,500 to 5000,0.5 to 5
Cn1cncc1-c1nc2cc(C#N)ccc2n1-c1ccc2c(c1)n(C)c(=O)n2C,> 5000,> 5
CNC(=O)c1ccc(-c2ccc3c(c2)nc(-c2c[nH]c4ncccc24)n3-c2ccc3c(c2)n(C)c(=O)n3C)cc1F,< 500,0.5 to 5
Cn1cncc1-c1nc2cc(-c3ccc(NC(=O)c4ccccc4)cc3)ccc2n1-c1ccc2c(c1)n(C)c(=O)n2C,< 500,0.5 to 5
CNC(=O)c1ccc(-c2ccc3c(c2)nc(Cc2ccccc2)n3-c2ccc3c(c2)n(C)c(=O)n3C)cc1F,> 5000,> 5
CNC(=O)c1ccc(-c2ccc3c(c2)nc(CCN(C)C)n3-c2ccc3c(c2)n(C)c(=O)n3C)cc1F,> 5000,> 5
CNC(=O)c1ccc(-c2ccc3c(c2)nc(-c2cccnc2Cl)n3-c2ccc3c(c2)n(C)c(=O)n3C)cc1F,500 to 5000,> 5
CNC(=O)c1ccc(-c2ccc3c(c2)nc(-c2ccnn2C)n3-c2ccc3c(c2)n(C)c(=O)n3C)cc1F,500 to 5000,> 5
Cc1noc(C)c1-c1ccc2c(c1)nc(-c1cncn1C)n2-c1ccc2c(c1)n(C)c(=O)n2C,500 to 5000,> 5
CNC(=O)c1ccc(-c2ccc3c(c2)nc(-c2ccccc2OC)n3-c2ccc3c(c2)n(C)c(=O)n3C)cc1F,< 500,> 5
CNC(=O)c1ccc(-c2ccc3c(c2)nc(C2CCNCC2)n3-c2ccc3c(c2)n(C)c(=O)n3C)cc1F,> 5000,> 5
CNC(=O)c1ccc(-c2ccc3c(c2)nc(-c2cnccc2C)n3-c2ccc3c(c2)n(C)c(=O)n3C)cc1F,500 to 5000,> 5
Cn1cncc1-c1nc2cc(-c3cn(CC(=O)NCC(F)(F)F)nn3)ccc2n1-c1ccc2c(c1)n(C)c(=O)n2C,500 to 5000,> 5
Cn1cncc1-c1nc2cc(Nc3ccccc3)ccc2n1-c1ccc2c(c1)n(C)c(=O)n2C,500 to 5000,> 5
CNC(=O)c1ccc(-c2ccc3c(c2)nc(-c2cnco2)n3-c2ccc3c(c2)n(C)c(=O)n3C)cc1F,> 5000,> 5

# Continued, values first:
IC50 (CBP BRD protein) [nM],IC50 (BRD4 (BD1) protein) [µM],Structure (SMILES)
< 500,> 5,Cn1cncc1-c1nc2cc(-c3ccc4c(c3)OCCO4)ccc2n1-c1ccc2c(c1)n(C)c(=O)n2C
500 to 5000,> 5,COC(=O)c1ccc(-c2ccc3c(c2)nc(-c2cncn2C)n3-c2ccc3c(c2)n(C)c(=O)n3C)cc1F
< 500,0.5 to 5,CNC(=O)c1ccc(-c2ccc3c(c2)nc(-c2cncn2C)n3-c2ccc3c(c2)n(C)c(=O)n3C)cc1F
< 500,> 5,COC(=O)c1ccc(-c2ccc3c(c2)nc(-c2cncn2C)n3-c2ccc3c(c2)n(C)c(=O)n3C)cn1
< 500,0.5 to 5,Cn1cncc1-c1nc2cc(-c3ccc(N)cc3)ccc2n1-c1ccc2c(c1)n(C)c(=O)n2C
< 500,> 5,COC(=O)c1ccc(-c2ccc3c(c2)nc(-c2cncn2C)n3-c2ccc3c(c2)n(C)c(=O)n3C)cc1
< 500,> 5,Cn1cncc1-c1nc2cc(-c3ccc(C(=O)O)c(F)c3)ccc2n1-c1ccc2c(c1)n(C)c(=O)n2C
500 to 5000,> 5,Cn1cncc1-c1nc2cc(-c3ccn(C)c(=O)c3)ccc2n1-c1ccc2c(c1)n(C)c(=O)n2C
500 to 5000,> 5,Cn1cncc1-c1nc2cc(-c3ccccc3F)ccc2n1-c1ccc2c(c1)n(C)c(=O)n2C
< 500,> 5,Cn1cncc1-c1nc2cc(-c3ccc(C(=O)O)cc3)ccc2n1-c1ccc2c(c1)n(C)c(=O)n2C
500 to 5000,> 5,COc1ccccc1-c1ccc2c(c1)nc(-c1cncn1C)n2-c1ccc2c(c1)n(C)c(=O)n2C
500 to 5000,> 5,Cn1cncc1-c1nc2cc(-c3cnn(CC(N)=O)c3)ccc2n1-c1ccc2c(c1)n(C)c(=O)n2C
500 to 5000,> 5,CNc1ccc(-c2ccc3c(c2)nc(-c2cncn2C)n3-c2ccc3c(c2)n(C)c(=O)n3C)cc1
< 500,> 5,CNC(=O)c1ccc(F)c(-c2ccc3c(c2)nc(-c2cncn2C)n3-c2ccc3c(c2)n(C)c(=O)n3C)c1
